The values that follow are results of earlier work, collected in patent US20240058331A1, “COMBINATION THERAPIES FOR TREATMENT OF CIRRHOSIS WITH PORTAL HYPERTENSION” (priority 2022, published 2024).

Sequences of proteins named here, by UniProt entry; tags and fusion partners are left off. Residues count along the entry.
UniProt P25101, 21-427: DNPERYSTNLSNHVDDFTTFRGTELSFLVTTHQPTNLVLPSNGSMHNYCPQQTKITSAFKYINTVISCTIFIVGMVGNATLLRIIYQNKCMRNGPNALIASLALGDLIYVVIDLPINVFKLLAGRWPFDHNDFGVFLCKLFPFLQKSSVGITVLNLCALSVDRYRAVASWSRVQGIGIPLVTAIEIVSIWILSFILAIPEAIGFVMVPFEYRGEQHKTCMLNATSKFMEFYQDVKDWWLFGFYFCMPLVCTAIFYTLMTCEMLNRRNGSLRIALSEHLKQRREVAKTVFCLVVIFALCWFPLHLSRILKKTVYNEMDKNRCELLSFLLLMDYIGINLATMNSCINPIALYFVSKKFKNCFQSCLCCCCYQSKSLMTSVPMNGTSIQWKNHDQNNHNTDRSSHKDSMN

Usually IC50 stands for the concentration at which inhibition is half-maximal.

In the data set the target is endothelin (ETA) receptor (Homo sapiens, UniProt P25101). To be noted: read-out: ETA IC50.

Turning to `COc1nc(C)cnc1NS(=O)(=O)c1cccnc1-c1ccc(-c2nnco2)cc1` [Zibotentan], the IC50 is 13 nM.
